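Tested at 5 concentrations; 48 h exposure; 96-well plates; endpoints linearly interpolated, else capped at highest concentration. GI50 is the concentration that inhibits growth by half. TGI is the concentration that stops growth completely.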
Key:
Assay in all cases: NCI-60 cell line screen, 48 h
786-0 renal = test system: 786-0 renal
A498 renal = test system: A498 renal
A549 NSCLC = test system: A549 NSCLC
ACHN renal = test system: ACHN renal
BT-549 breast = test system: BT-549 breast
CAKI-1 renal = test system: CAKI-1 renal
CCRF-CEM leukemia = test system: CCRF-CEM leukemia
COLO 205 colon = test system: COLO 205 colon
DU-145 prostate = test system: DU-145 prostate
EKVX NSCLC = test system: EKVX NSCLC
HCC-2998 colon = test system: HCC-2998 colon
HCT-116 colon = test system: HCT-116 colon
HCT-15 colon = test system: HCT-15 colon
HL-60(TB) leukemia = test system: HL-60(TB) leukemia
HOP-62 NSCLC = test system: HOP-62 NSCLC
HOP-92 NSCLC = test system: HOP-92 NSCLC
HS 578T breast = test system: HS 578T breast
HT29 colon = test system: HT29 colon
K-562 leukemia = test system: K-562 leukemia
KM12 colon = test system: KM12 colon
M14 melanoma = test system: M14 melanoma
MALME-3M melanoma = test system: MALME-3M melanoma
MCF7 breast = test system: MCF7 breast
MDA-MB-231 breast = test system: MDA-MB-231 breast
MDA-MB-435 = test system: MDA-MB-435
MOLT-4 leukemia = test system: MOLT-4 leukemia
NCI-H226 lung = test system: NCI-H226 lung
NCI-H23 lung = test system: NCI-H23 lung
NCI-H322M lung = test system: NCI-H322M lung
NCI-H460 lung = test system: NCI-H460 lung
NCI/ADR-RES ovarian = test system: NCI/ADR-RES ovarian
OVCAR-3 ovarian = test system: OVCAR-3 ovarian
OVCAR-4 ovarian = test system: OVCAR-4 ovarian
OVCAR-5 ovarian = test system: OVCAR-5 ovarian
OVCAR-8 ovarian = test system: OVCAR-8 ovarian
PC-3 prostate = test system: PC-3 prostate
RPMI-8226 leukemia = test system: RPMI-8226 leukemia
RXF 393 renal = test system: RXF 393 renal
SF-268 CNS = test system: SF-268 CNS
SF-295 CNS = test system: SF-295 CNS
SF-539 CNS = test system: SF-539 CNS
SK-MEL-28 melanoma = test system: SK-MEL-28 melanoma
SK-MEL-5 melanoma = test system: SK-MEL-5 melanoma
SK-OV-3 ovarian = test system: SK-OV-3 ovarian
SNB-75 CNS = test system: SNB-75 CNS
SW-620 colon = test system: SW-620 colon
T-47D breast = test system: T-47D breast
TK-10 renal = test system: TK-10 renal
U251 CNS = test system: U251 CNS
UACC-257 melanoma = test system: UACC-257 melanoma
UACC-62 melanoma = test system: UACC-62 melanoma
UO-31 renal = test system: UO-31 renal

CC(C)[As](SCC(O)CO)C(C)C (stereo not drawn)
GI50 (786-0 renal): 532 nM | TGI (786-0 renal): 1990 nM | GI50 (A498 renal): 1310 nM | TGI (A498 renal): 3120 nM | GI50 (A549 NSCLC): 3360 nM | TGI (A549 NSCLC): 10600 nM | GI50 (ACHN renal): 11500 nM | TGI (ACHN renal): 16900 nM | GI50 (BT-549 breast): 1290 nM | TGI (BT-549 breast): 2780 nM | GI50 (CAKI-1 renal): 658 nM | TGI (CAKI-1 renal): 2350 nM | GI50 (CCRF-CEM leukemia): 231 nM | TGI (CCRF-CEM leukemia): 1000 nM | GI50 (COLO 205 colon): 1060 nM | TGI (COLO 205 colon): 2590 nM | GI50 (DU-145 prostate): 1240 nM | TGI (DU-145 prostate): 5030 nM | GI50 (EKVX NSCLC): 1240 nM | TGI (EKVX NSCLC): 6150 nM | GI50 (HCC-2998 colon): 1410 nM | TGI (HCC-2998 colon): 2890 nM | GI50 (HCT-116 colon): 675 nM | TGI (HCT-116 colon): 3550 nM | TGI (HCT-15 colon): 227 nM | GI50 (HL-60(TB) leukemia): 245 nM | TGI (HL-60(TB) leukemia): 10300 nM | GI50 (HOP-62 NSCLC): 1680 nM | TGI (HOP-62 NSCLC): 3170 nM | GI50 (HOP-92 NSCLC): 129 nM | TGI (HOP-92 NSCLC): 659 nM | GI50 (HS 578T breast): 1290 nM | TGI (HS 578T breast): 15800 nM | GI50 (HT29 colon): 523 nM | TGI (HT29 colon): > 100000 nM | GI50 (K-562 leukemia): 104 nM | TGI (K-562 leukemia): 5640 nM | GI50 (KM12 colon): 1190 nM | TGI (KM12 colon): 2440 nM | GI50 (M14 melanoma): 1230 nM | TGI (M14 melanoma): 4510 nM | GI50 (MALME-3M melanoma): 125 nM | TGI (MALME-3M melanoma): 912 nM | GI50 (MCF7 breast): 572 nM | TGI (MCF7 breast): 15300 nM | GI50 (MDA-MB-231 breast): 175 nM | TGI (MDA-MB-231 breast): 844 nM | GI50 (MDA-MB-435): 1190 nM | TGI (MDA-MB-435): 3070 nM | GI50 (MOLT-4 leukemia): 452 nM | TGI (MOLT-4 leukemia): 17300 nM | GI50 (NCI-H226 lung): 3260 nM | TGI (NCI-H226 lung): 9520 nM | GI50 (NCI-H23 lung): 572 nM | TGI (NCI-H23 lung): 1900 nM | GI50 (NCI-H322M lung): 2190 nM | TGI (NCI-H322M lung): 4990 nM | GI50 (NCI-H460 lung): 3180 nM | TGI (NCI-H460 lung): 17100 nM | GI50 (NCI/ADR-RES ovarian): 1710 nM | TGI (NCI/ADR-RES ovarian): 5120 nM | GI50 (OVCAR-3 ovarian): 208 nM | TGI (OVCAR-3 ovarian): 1010 nM | GI50 (OVCAR-4 ovarian): 2360 nM | TGI (OVCAR-4 ovarian): 5700 nM | GI50 (OVCAR-5 ovarian): 1510 nM | TGI (OVCAR-5 ovarian): 3360 nM | GI50 (OVCAR-8 ovarian): 2310 nM | TGI (OVCAR-8 ovarian): > 100000 nM | GI50 (PC-3 prostate): 778 nM | TGI (PC-3 prostate): 2600 nM | GI50 (RPMI-8226 leukemia): 176 nM | TGI (RPMI-8226 leukemia): 597 nM | GI50 (RXF 393 renal): 380 nM | TGI (RXF 393 renal): 1580 nM | GI50 (SF-268 CNS): 1290 nM | TGI (SF-268 CNS): 2870 nM | GI50 (SF-295 CNS): 2300 nM | TGI (SF-295 CNS): 9510 nM | GI50 (SF-539 CNS): 1900 nM | TGI (SF-539 CNS): 3780 nM | GI50 (SK-MEL-28 melanoma): 403 nM | TGI (SK-MEL-28 melanoma): 2330 nM | GI50 (SK-MEL-5 melanoma): 204 nM | TGI (SK-MEL-5 melanoma): 507 nM | GI50 (SK-OV-3 ovarian): 1370 nM | TGI (SK-OV-3 ovarian): 3490 nM | GI50 (SNB-75 CNS): 1040 nM | TGI (SNB-75 CNS): 7260 nM | GI50 (SW-620 colon): 302 nM | TGI (SW-620 colon): 2530 nM | GI50 (T-47D breast): 529 nM | TGI (T-47D breast): 5840 nM | GI50 (TK-10 renal): 528 nM | TGI (TK-10 renal): 1920 nM | GI50 (U251 CNS): 1710 nM | TGI (U251 CNS): 6940 nM | GI50 (UACC-257 melanoma): 308 nM | TGI (UACC-257 melanoma): 1300 nM | GI50 (UACC-62 melanoma): 2400 nM | TGI (UACC-62 melanoma): > 100000 nM | GI50 (UO-31 renal): 1670 nM | TGI (UO-31 renal): 15400 nM
